Test results reported in publication PMC12624777.

Target: SNAP::rCaMKII WT (rat CaMKIIα with an N-terminal SNAP-tag) (rat (Rattus norvegicus)), P11275
Experiment: SEC; analytical gel filtration, Superose 6 10/300 GL, 50 mM Tris pH 7.5, 150 mM NaCl, 1 mM TCEP, 0.4 ml/min; cleared HEK293T lysate injected without additional purification; detected by TMR-Star fluorescence; size estimated from Kav against MW standards
Conditions: remark: other sources report otherwise

B1: SNAP::rCaMKII WT (rat CaMKIIα with an N-terminal SNAP-tag) (enzyme)
chain: MATITCTRFTEEYQLFEELGKGAFSVVRRCVKVLAGQEYAAKIINTKKLSARDHQKLEREARICRLLKHPNIVRLHDSISEEGHHYLIFDLVTGGELFEDIVAREYYSEADASHCIQQILEAVLHCHQMGVVHRDLKPENLLLASKLKGAAVKLADFGLAIEVEGEQQAWFGFAGTPGYLSPEVLRKDPYGKPVDLWACGVILYILLVGYPPFWDEDQHRLYQQIKAGAYDFPSPEWDTVTPEAKDLINKMLTINPSKRITAAEALKHPWISHRSTVASCMHRQETVDCLKK[skipping about 20 residues]GGKSGGNKKNDGVKESSESTNTTIEDEDTKVRKQEIIKVTEQLIEAISNGDFESYTKMCDPGMTAFEPEALGNLVEGLDFHRFYFENLWSRNSKPVHTTILNPHIHLMGDESACIAYIRITQYLDAGGIPRTAQSEETRVWHRRDGKWQIVHFHRSGAPSVLPH
modifications: here or on the partner: TMR-Star (fluorescent SNAP-ligand) on the SNAP-tag; TMR-Star (fluorescent SNAP-ligand) on the SNAP-tag
stoichiometry N: 12
